Reference: patent publication US20220226372A1 (priority 2019, published 2022)

Tests used:
HL60 cells [1] = assay: HL-60 cell viability (crystal violet); type: cell-based, Human; conditions: 48 h
[2] = system: C57BL6 mice splenic cells; assay: Mixed lymphocyte reaction (MLR), cell proliferation by UptiBlue; type: cell-based, mouse; conditions: arsenic compound 1 μM, mitogen CD3 5 μg/ml/CD28 2 μg/ml
HL60 cells [3] = conditions: 48 h
[4] = arsenic compound alone at 0.1, 0.5, 1, 5 and 10 μM vs control

arsenic triiodide
Effect on cell survival vs control (HL60 cells [1]; AsI3 1 μM (Example 8)): not effect
HL-60 cell viability: concentrations with significant decrease (HL60 cells [1]; [4]): 10 µM
Cell proliferation in the presence of mitogen [2]: only significantly active on test 2
Effect on H2O2 production vs control (HL60 cells [3]; AsI3 1 μM (Example 8)): not effect
Effect on the production of H2O2 (HL60 cells [3]; [4]): significantly reduced H2O2 production at all tested concentrations
